# The entries are a selection whose mix differs from that of the whole data set. Some results for these compounds are left out of this collection, so the calls shown say nothing about other tests. The source made the active and inactive calls. Calls come from the whole dose curve; as a rule, active = well fitted activation curve with a large enough effect; inconclusive = small, poorly fitted or top-dose-only effect; inactive = no such curve, though single readings can be large or run the other way.
# Test: qHTS Assay for Identifying a Potential Treatment of Ataxia-Telangiectasia; note: % of control where 0% means no effect; nearly all actives have a fitted effect of over 45% in size
# Conditions: […] A-T fibroblasts, KAP-1 phosphorylation AlphaLISA, neocarzinostatin DNA damage 30 min before lysis; at 57.5 µM (top of the series)
# Text: NIH Chemical Genomics Center [NCGC] NIH Molecular Libraries Probe Centers Network [MLPCN] MLPCN Grant: MH089030-01 Assay Submitter (PI): Wei Zheng and Yosef Shiloh Ataxia-telangiectasia (A-T) is a devastating and progressive disease for which, there is no cure. Although A-T is a multisystem disease, it is stereotyped characterized by its neurological symptoms such as truncal ataxia, due to cerebellar cortical degeneration of the Purkinje and granule cells. Other symptoms of A-T are telangiectasias (dilated blood vessels), primary immunodeficiency, marked sensitivity to ionizing radiation (IR), chromosomal instability and predisposition to cancer. The underlying genetic cause of A-T is null mutations in the ATM (A-T mutated) gene. ATM is a nuclear serine/threonine kinase that functions as a master regulator of the cellular responses to double strand breaks (DSBs) in the DNA. Upon activation by DSBs, ATM phosphorylates a plethora of down stream targets, including KAP-1 on […]. KAP-1 phosphorylation occurs shortly in response to DSBs and mediates global chromatin relaxation, which facilitates DSB repair. To screen for small molecules that will compensate for the loss of ATM in cells derived from A-T patients, we monitored KAP-1 phosphorylation as a readout for ATM-like activity using an AlphaLISA assay.
# qHTS Assay Protocol: Step,Parameter,Value,Description 1. Cell Plating, 3 ul, 500 cells/well in OPTI-MEM, 1% FBS, 1% Pen/Strep 2. Incubation, 16-24 hr, 37C, 5% CO2, 95% humidity 3. Library compounds, 23 nl, 76.7 - 0.61uM dilution series final concentration 4. Incubation, 60 min, 37C, 5% CO2, 95% humidity 5. Reagent, 1 ul, 1600 ng/ml NCS in PBS + 0.05% BSA + 0.005% Tween 20 6. Incubation, 30 min, 37C, 5% CO2, 95% humidity 7. Reagent, 1 ul, Premixed detection reagents and lysis buffer 8. Reagent, 1 ul, 0.6% Antifoam A 9. Incubation, 6 hr, 25C, 95% humidity 10. Readout, EnVision, EnVision plate reader. AlphaScreen 1536-well protocol Cells were plated using medium-binding white solid-bottom tissue culture treated Kalypsys plates. Multidrop dispense of 3 uL of […] (hTERT immortalized A-T patient fibroblast cells). Detection reagent and lysis buffer was 3.75nM Rab-a-pKAP1 antibody bound to 75 ng/ul AlphaScreen SA donor bead, 3.75 nM Biot-M-a-KAP1 antibody bound to AlphaLISA protein A acceptor bead, 0.5x protease inhibitor cocktail and 0.25x PerkinElmer lysis buffer. EnVision protocol for 1536-well AlphaScreen read (30ms excitation, 100ms read), about 10 min/plate.
row,SMILES,activation
1,COc1ccc(Br)c(C(=O)NCC2(N3CCCCC3)CCCCC2)c1,inactive: -11.3%
2,CN(C)c1cccc(C(=O)NCC2(N(C)C)CCCCC2)c1,inactive: 2.56%
3,CC(C)Oc1ccc(C(=O)NCC2(N(C)C)CCCCC2)cc1,inactive: 29.4%
4,O=C(OC1CN2CCC1CC2)C(CO)(c1ccccc1)c1ccccc1 (centres undefined),inactive: 5.37%
5,COc1ccc(Cl)cc1C(=O)NCC1(N(C)C)CCCCC1,inactive: 3.35%
6,COc1cccc(C(=O)NCC2(N3CCCCC3)CCCCC2)c1,inactive: 4.27%
7,O=C(NCC1(N2CCCCC2)CCCCC1)c1cccc(Cl)c1,inactive: 1.19%
8,CN(C)C1(CNC(=O)c2ccc(Br)cc2)CCCCC1,inactive: -2.3%
9,COc1cc(C(=O)NCC2(N(C)C)CCCCC2)c([N+](=O)[O-])cc1OC,inactive: 20%
10,O=C(NCC1(N2CCCCC2)CCCCC1)c1cc(F)c(F)cc1Cl,inactive: 2.64%
11,C=CCN1CCN(CCOC(=O)C(O)(c2ccccc2)c2ccccc2)CC1,inactive: -4.53%
12,O=C(NCC1(N2CCCCC2)CCCCC1)c1cccc(Br)c1,inactive: -0.584%
13,CCN1CCCC(OC(=O)C2(O)c3ccccc3C=Cc3ccccc32)C1 (centres undefined),inactive: 19.8%
14,Cc1cc(C(=O)NCC2(N3CCCCC3)CCCCC2)ccc1[N+](=O)[O-],inactive: 2.92%
15,COc1ccc(C(=O)NCC2(N(C)C)CCCCC2)cc1,inactive: 5.43%
16,CN(C)c1ccc(C(=O)NCC2(N(C)C)CCCCC2)cc1,inactive: 11%
17,CN(C)C1CCCC1OC(=O)C(O)(c1ccccc1)c1ccccc1 (centres undefined),inactive: -1.66%
18,Cc1ccccc1C(=O)NCC1(N2CCCCC2)CCCCC1,inactive: -0.244%
19,CC(C)N1C(=O)CC2(CCN(CCOC(=O)C(O)(c3ccccc3)c3ccccc3)CC2)C1=O,inactive: -3.79%
20,COc1cc(SC)ccc1C(=O)NCC1(N(C)C)CCCCC1,inactive: -16.7%
21,CCN(CC)CC(C)C(C)OC(=O)C(O)(c1ccccc1)c1ccccc1 (centres undefined),inactive: 11.5%
22,Cc1ccc(C(=O)NCC2(N3CCCCC3)CCCCC2)cc1,inactive: -4.6%
23,O=C(NCC1(N2CCCCC2)CCCCC1)c1cc([N+](=O)[O-])ccc1Cl,inactive: -3.3%
24,CN1[C@@H]2CC[C@H]1CC(OC(=O)C(O)(c1ccccc1)c1ccccc1)C2 (some centres undefined),inactive: -2.6%

# — PubChem BioAssay AID485349 (National Center for Advancing Translational Sciences (NCATS), 2010)
